Assay [1] deals with T1, human MOR (Homo sapiens, UniProt P35372). Briefly: forskolin stimulated cAMP levels in intact HEK-MOR cells. The format is cell-based. Conditions: 1 μM drug, 100 μM forskolin. (Cyclic AMP is a second messenger, typically raised through Gs and lowered through Gi signalling.)
Assay [2] deals with T1, human MOR. The conditions noted are these: for effect on basal 35S-GTPγS binding activity: 1 μM drug, 1 mM MgCl2, no agonist; for EC50: read-out: EC50 (35S-GTPγS binding dose-response). (GTPγS is a poorly hydrolysed GTP analogue; its binding reports G protein activation.)

Protein sequences, listed by entry. Tags and fused reporters are not part of them. Lines headed by an entry give the natural chain unless they say otherwise; changes in a name come on top.
UniProt P35372: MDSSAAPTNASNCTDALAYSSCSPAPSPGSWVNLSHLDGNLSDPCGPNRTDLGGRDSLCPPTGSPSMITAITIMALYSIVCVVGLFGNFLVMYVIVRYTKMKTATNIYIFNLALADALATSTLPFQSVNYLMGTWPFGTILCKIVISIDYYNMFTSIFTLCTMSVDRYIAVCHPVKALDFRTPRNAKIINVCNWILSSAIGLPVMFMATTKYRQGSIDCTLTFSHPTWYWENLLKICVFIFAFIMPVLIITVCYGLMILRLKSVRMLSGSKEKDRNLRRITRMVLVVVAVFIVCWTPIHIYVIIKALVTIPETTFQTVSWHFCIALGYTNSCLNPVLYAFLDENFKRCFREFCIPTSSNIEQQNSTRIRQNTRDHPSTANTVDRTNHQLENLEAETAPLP

Read-outs that look alike come from different tables or passages of the source.

Consider β-chlornaltrexamine, for which the “effect on forskolin stimulated cAMP levels” value in assay [1] (morphine-pretreated HEK-MOR cells) and in assay [1] (untreated HEK-MOR cells) was “increased” in each case. Besides, the “effect on basal 35S-GTPγS binding activity” value in assay [2] (morphine-pretreated HEK-MOR membranes) and in assay [2] (untreated HEK-MOR membranes) was “decreased” in each case. The concentration giving a half-maximal response (EC50) (in general, the concentration needed to bring the measured effect to its halfway point) in assay [2] (morphine-pretreated HEK-MOR cell membranes) was determined as 59 nM; in assay [2] (naive HEK-MOR cell membranes), 29 nM.

The record behind these values is patent US6713488B2 (priority 2000, dated 2004).
